Experimental data reported in ChEMBL document CHEMBL1151944, “Activation of peroxisome proliferator-activated receptor gamma (PPARgamma) by nitroalkene fatty acids: importance of nitration position and degree of unsaturation” (J Med Chem, 2009).

Chains of the proteins cited; added tags and fusions are not shown. Lines headed by an entry give the natural chain unless they say otherwise; changes in a name come on top.
UniProt P37231: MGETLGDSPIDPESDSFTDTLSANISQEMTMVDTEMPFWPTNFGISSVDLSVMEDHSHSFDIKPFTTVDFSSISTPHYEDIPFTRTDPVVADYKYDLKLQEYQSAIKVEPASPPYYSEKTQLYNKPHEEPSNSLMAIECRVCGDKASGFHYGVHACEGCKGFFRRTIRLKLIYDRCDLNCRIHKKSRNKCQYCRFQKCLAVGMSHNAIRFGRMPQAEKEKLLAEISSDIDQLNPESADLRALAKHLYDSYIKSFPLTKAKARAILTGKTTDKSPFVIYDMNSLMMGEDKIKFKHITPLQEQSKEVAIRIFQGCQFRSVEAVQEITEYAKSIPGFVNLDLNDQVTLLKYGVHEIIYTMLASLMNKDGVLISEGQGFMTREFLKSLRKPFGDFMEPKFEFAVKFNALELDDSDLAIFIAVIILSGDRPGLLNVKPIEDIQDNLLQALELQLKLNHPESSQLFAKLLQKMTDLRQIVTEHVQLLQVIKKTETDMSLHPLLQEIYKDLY

How the values were obtained:
[1] = target: T1, Peroxisome proliferator-activated receptor gamma (Homo sapiens, UniProt P37231)
[2] = target: T1, Peroxisome proliferator-activated receptor gamma; remark: listed apart in the source
[3] = target: T1, Peroxisome proliferator-activated receptor gamma; experiment: Displacement of [3H2]nTZD3 from GST-tagged human recombinant PPARgamma by scintillation proximity assay

EC50 [1]: 45 nM
EC50 [2]: 70 nM
IC50 [3]: 410 nM
SMILES: CCCCC/C=C(\C/C=C\CCCCCCCC(=O)O)[N+](=O)[O-]
